Source: ChEMBL document CHEMBL6127063, “N-substituted-4-(pyridin-4-ylalkyl)piperazine-1-carboxamides and related compounds as Leishmania CYP51 and CYP5122A1 inhibitors” (Bioorg Med Chem, 2024)

Assay: Inhibition of full length his-tagged recombinant Leishmania donovani CYP51-32c

COc1ccc(CCN2CCN(C(=O)Nc3ccc(OCc4cc(C(F)(F)F)cc(C(F)(F)F)c4)cc3)CC2)cc1
IC50: > 100 µM
